{"source": "paper PMC6201930", "about": "“The minor gentamicin complex component, X2, is a potent premature stop codon readthrough molecule with therapeutic potential” (PLoS ONE, 2018)", "system": "zebrafish neuromasts (hair cells)", "details": "in vivo"}
{"substance": "gentamicin", "values": [{"measurement": "Neuromast (CC50)", "value": "2.8 ± 1.2", "unit": "µM"}]}
